One compound from article PMC5865166, “MultiBacMam Bimolecular Fluorescence Complementation (BiFC) tool-kit identifies new small-molecule inhibitors of the CDK5-p25 protein-protein interaction (PPI)” (Scientific Reports, 2018) can be followed below.

By UniProt entry, the sequences of proteins in these tests, tags left out.
UniProt Q8NB16, whole entry: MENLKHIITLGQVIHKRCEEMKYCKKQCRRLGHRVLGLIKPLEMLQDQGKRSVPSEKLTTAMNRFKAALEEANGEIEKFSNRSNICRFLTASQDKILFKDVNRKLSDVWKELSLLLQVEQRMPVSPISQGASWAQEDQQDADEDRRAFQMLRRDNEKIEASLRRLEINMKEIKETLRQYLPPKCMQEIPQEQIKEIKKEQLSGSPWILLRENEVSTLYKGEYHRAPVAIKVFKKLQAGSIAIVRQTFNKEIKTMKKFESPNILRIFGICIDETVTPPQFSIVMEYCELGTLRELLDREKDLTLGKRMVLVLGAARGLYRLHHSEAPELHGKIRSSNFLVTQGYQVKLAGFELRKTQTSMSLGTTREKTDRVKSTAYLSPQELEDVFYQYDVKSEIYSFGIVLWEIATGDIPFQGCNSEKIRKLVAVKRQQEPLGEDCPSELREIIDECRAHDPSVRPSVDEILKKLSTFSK
UniProt Q9Y572, whole entry: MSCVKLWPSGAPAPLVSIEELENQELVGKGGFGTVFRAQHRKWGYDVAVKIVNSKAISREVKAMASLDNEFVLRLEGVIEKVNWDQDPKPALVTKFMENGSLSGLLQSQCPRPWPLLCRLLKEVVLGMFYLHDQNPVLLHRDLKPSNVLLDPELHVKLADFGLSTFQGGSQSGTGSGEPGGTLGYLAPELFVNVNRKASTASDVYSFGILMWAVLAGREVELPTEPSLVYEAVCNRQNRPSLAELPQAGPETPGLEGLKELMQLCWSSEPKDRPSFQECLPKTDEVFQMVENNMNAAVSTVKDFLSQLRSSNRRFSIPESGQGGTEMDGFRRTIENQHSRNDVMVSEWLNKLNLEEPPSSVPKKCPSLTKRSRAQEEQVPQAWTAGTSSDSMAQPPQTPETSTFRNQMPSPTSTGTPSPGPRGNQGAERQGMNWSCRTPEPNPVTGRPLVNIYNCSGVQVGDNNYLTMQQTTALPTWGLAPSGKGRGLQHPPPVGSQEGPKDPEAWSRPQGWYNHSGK

In one experiment the target is MLKL-RIPK3 PPI (Homo sapiens, UniProt Q8NB16+Q9Y572). Nature of the experiment: MLKL-RIPK3 BiFC counter assay in transduced U2OS cells (VN-MLKL/VC-RIPK3).
The test system of another experiment is Tau dimerization. Put plainly: Tau BiFC counter assay in transduced U2OS cells (VN-TAU/VC-TAU).
Another experiment deals with CDK5-p25 PPI. Nature of the experiment: MultiBacMam BiFC assay of CDK5-p25 PPI in transduced U2OS cells (VN-CDK5(D144N)/VC-p25). As to conditions: read-out: IC50 (percentage of BiFC positive cells); 16 h treatment, dose-response.

Take `CCC(C)(C)C(=O)N1Cc2c(Nc3cccc(OC)n3)n[nH]c2C1(C)C`: the “BiFC signal in MLKL-RIPK3 counter assay” value at MLKL-RIPK3 PPI (10 μM) is “almost complete loss of BiFC signal”. The results for the IC50 against MLKL-RIPK3 PPI (MLKL-RIPK3 BiFC counter assay), in the experiment with Tau dimerization (Tau BiFC counter assay) and in the experiment on CDK5-p25 PPI were 5.84 µM, 3.21 µM and 1.39 µM, respectively. In the experiment with Tau dimerization (10 μM), the “BiFC signal in Tau counter assay” value is on record as “almost complete loss of BiFC signal”.
